Test results published in ChEMBL document CHEMBL2346505, “Pyranoflavones: a group of small-molecule probes for exploring the active site cavities of cytochrome P450 enzymes 1A1, 1A2, and 1B1” (J Med Chem, 2013).

Amino acid sequences for entries named in this document (tags omitted).
UniProt P05177, whole entry: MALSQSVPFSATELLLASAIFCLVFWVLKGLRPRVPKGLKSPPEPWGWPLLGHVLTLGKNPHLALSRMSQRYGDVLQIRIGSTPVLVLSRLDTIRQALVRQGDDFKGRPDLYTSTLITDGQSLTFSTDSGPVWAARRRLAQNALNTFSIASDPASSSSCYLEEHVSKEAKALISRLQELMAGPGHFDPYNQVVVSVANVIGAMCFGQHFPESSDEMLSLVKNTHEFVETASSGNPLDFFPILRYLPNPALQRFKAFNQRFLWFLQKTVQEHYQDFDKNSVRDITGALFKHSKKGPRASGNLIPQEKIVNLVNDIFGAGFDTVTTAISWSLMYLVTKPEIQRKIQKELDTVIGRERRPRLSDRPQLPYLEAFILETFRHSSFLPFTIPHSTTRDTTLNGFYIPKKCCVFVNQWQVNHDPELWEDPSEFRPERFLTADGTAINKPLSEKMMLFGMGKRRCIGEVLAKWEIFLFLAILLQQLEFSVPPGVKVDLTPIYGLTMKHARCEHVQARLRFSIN

Biological target: Cytochrome P450 1A2 (Homo sapiens, UniProt P05177)
Experiment: Inhibition of CYP1A2 (unknown origin)-mediated demethylation of resorufin methyl ether after 5 mins by spectrofluorimetric analysis
Format: ADME
In short: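 Microsomal P450 (final 5 nM) in 0.1 M potassium phosphate pH 7.6 with MgCl2; resorufin ether or coumarin substrate final 5 μM from DMSO stock; inhibitor added in DMSO, DMSO alone for controls. Reaction started with NADPH regenerating system (NADP+, glucose 6-phosphate, G6P dehydrogenase) at 37 °C; product formation followed fluorimetrically as progress curves.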

IC50: 59 nM
Structure (SMILES): O=c1cc(-c2ccccc2)oc2c3c(ccc12)OCC=C3
